Active and inactive are the calls of the source.
Legend:
Settings in all cases: Homo sapiens
HEK293 [1] = experiment: Inhibition of proteasome beta5 in HEK cell lysates at 1 to 100 uM after 1 hr by MV151 competitive SDS-PAGE analysis
HEK293 [2] = experiment: Inhibition of proteasome beta2 in HEK cell lysates at 1 to 100 uM after 1 hr by MV151 competitive SDS-PAGE analysis
HEK293 [3] = experiment: Inhibition of proteasome beta1 in HEK cell lysates at 1 to 100 uM after 1 hr by MV151 competitive SDS-PAGE analysis

Measured: inhibition

CC(C)C[C@@H](CS(=O)(=O)F)NC(=O)[C@@H](N)CC(C)C
inactive: all assays above

— ChEMBL document CHEMBL2177051
